Molecular target: GLP-1R (Homo sapiens, UniProt P43220)
Test: cAMP activation in DiscoveRx GLP-1R reporter cells
Type: cell-based
Details: GLP-1R cAMP EC50 relative to GLP-1-F7

Protein sequences, listed by entry. Tags and fused reporters are not part of them. Residues count along the entry.
UniProt P43220, 24-463: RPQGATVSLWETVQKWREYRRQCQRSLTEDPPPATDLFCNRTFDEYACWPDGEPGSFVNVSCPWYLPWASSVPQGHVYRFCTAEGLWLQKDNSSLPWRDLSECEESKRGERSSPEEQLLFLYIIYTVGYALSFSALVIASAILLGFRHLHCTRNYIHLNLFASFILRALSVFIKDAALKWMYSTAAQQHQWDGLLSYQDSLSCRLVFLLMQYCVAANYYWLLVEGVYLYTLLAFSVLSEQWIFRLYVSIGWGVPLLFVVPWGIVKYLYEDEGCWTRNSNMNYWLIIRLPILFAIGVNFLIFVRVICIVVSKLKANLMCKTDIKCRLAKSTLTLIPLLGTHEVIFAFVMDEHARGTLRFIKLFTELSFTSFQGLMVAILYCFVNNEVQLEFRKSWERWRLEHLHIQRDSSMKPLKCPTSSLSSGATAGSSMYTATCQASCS

In the case of CC[C@H](C)[C@H](NC(=O)[C@H](Cc1ccccc1)NC(=O)[C@H](CCC(=O)O)NC(=O)[C@H](CCCCN)NC(=O)[C@H](C)NC(=O)[C@H](C)NC(=O)[C@H](CCC(N)=O)NC(=O)CNC(=O)[C@H](CCC(=O)O)NC(=O)[C@H](CC(C)C)NC(=O)[C@H](Cc1ccc(O)cc1)NC(=O)[C@H](CO)NC(=O)[C@H](CO)NC(=O)[C@@H](NC(=O)[C@H](CC(=O)O)NC(=O)[C@H](CO)NC(=O)[C@@H](NC(=O)[C@H](Cc1ccccc1)NC(=O)[C@@H](NC(=O)CNC(=O)[C@H](CCC(=O)O)NC(=S)[C@H](C)NC(=O)[C@@H](N)Cc1ccccc1)[C@@H](C)O)[C@@H](C)O)C(C)C)C(=O)N[C@@H](C)C(=O)N[C@@H](Cc1c[nH]c2ccccc12)C(=O)N[C@@H](CC(C)C)C(=O)N[C@H](C(=O)N[C@@H](CCCCN)C(=O)NCC(=O)N[C@@H](CCCNC(=N)N)C(N)=O)C(C)C [GLP-1-F7A^S8], the “Fold less potent than GLP-1-F7, cAMP activation” value is reported as 16 fold.
